One test addresses Dihydrofolate reductase (Homo sapiens, UniProt P00374).
The target of test [1] is T1, Bifunctional dihydrofolate reductase-thymidylate synthase (Toxoplasma gondii, UniProt Q07422).
T1 sequence (Q07422 whole entry): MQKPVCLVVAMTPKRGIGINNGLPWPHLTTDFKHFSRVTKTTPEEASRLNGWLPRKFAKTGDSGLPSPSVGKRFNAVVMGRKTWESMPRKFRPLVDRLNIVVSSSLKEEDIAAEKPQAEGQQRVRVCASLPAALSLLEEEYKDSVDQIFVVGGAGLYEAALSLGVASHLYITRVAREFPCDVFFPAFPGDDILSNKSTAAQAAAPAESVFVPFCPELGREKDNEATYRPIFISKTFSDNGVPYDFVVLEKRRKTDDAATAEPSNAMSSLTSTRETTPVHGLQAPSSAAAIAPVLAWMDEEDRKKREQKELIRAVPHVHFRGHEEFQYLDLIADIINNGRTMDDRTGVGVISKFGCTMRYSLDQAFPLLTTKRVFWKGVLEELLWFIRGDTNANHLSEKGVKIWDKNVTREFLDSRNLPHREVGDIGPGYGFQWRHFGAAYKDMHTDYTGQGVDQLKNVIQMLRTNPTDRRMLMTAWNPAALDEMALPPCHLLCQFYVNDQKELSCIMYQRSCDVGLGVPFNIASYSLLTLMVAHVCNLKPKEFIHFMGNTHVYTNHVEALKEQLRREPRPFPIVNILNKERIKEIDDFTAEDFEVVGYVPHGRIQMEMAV

As a reminder, the IC50 is the concentration needed to halve the response being measured. A high value points to lower potency. The compound `Nc1nc2[nH]cc(CCc3ccc(C(=O)N[C@@H](CCC(=O)O)C(=O)O)cc3)c2c(=O)[nH]1` [PEMETREXED] returned a half-inhibitory concentration (IC50) on Dihydrofolate reductase of 1500 nM.
`Cc1nc2ccc(CN(C)c3ccc(C(=O)N[C@@H](CCC(=O)O)C(=O)O)s3)cc2c(=O)[nH]1` [RALTITREXED] registered an IC50 in test [1] of 900 nM. This lies in the sub-micromolar range.
